In patent US12478617B2, “Lipidated peptide inhibitors of interleukin-23 receptor” (JANSSEN BIOTECH, INC., priority 2021, dated 2025):
Read-outs that look alike come from different tables or passages of the source.

Key:
Type in all cases: cell-based
[1] = target: T1, IL-23R (Homo sapiens, UniProt Q5VWK5); assay: IL23R Reporter Assay; conditions: HEK293 cells containing IL-23R, IL-12Rβ1 and STAT-inducible firefly luciferase reporter, 10 ng/mL IL-23 (EC90), 5 h at 37° C.
T1 construct: HEK293 cells containing IL-23R, IL-12RP31 and a firefly luciferase reporter gene driven by a STAT-inducible promoter (Promega); host or cells: HEK293
T1 sequence (Q5VWK5 24-629): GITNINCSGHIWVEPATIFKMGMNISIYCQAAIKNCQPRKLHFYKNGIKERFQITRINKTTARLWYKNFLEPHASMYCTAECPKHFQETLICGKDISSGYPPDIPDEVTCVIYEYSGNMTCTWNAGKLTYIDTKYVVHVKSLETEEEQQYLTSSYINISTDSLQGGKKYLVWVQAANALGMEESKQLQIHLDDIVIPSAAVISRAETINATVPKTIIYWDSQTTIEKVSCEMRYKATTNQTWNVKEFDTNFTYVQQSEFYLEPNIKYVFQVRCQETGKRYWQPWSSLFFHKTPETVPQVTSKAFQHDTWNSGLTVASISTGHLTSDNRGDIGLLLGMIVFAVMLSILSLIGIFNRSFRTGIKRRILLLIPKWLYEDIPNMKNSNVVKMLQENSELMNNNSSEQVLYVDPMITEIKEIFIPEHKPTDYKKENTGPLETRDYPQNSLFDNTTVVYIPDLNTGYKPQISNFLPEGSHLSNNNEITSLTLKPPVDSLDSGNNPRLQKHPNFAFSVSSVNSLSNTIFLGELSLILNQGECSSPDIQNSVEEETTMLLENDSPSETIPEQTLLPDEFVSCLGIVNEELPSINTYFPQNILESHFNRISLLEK

[2] = target: T2, peripheral blood mononuclear cells (PBMCs) (Homo sapiens, UniProt Q5VWK5); assay: PBMC pSTAT3 assay
T2 sequence (Q5VWK5 24-629): T1 sequence (Q5VWK5 24-629)
Source text: IL-23 binding to IL-23 receptors results in the activation of the Signal Transducer and Activator of Transcription 3 (STAT3) by phosphorylation and downstream signaling events. Accordingly. the ability of the inhibitors described herein to block IL-23 action can be assessed by monitoring the status of STAT3 activation in response to IL-23. This may be accomplished in reporter cell assays or in intact cells such as peripheral blood mononuclear cells (PBMCs).
Cryopreserved peripheral blood mononuclear cells (PBMCs) from healthy donors were thawed and washed twice in ImmunoCult-XF T cell expansion medium (XF-TCEM) supplemented with CTL anti-aggregate wash. The cells were counted, resuspended at 2×10^5 cells per mL XF-TCEM supplemented with penicillin/streptomycin and 100 ng/mL IL-1β (BioLegend, 579404), and cultured in tissue culture flasks coated with anti-CD3 (eBioscience, 16-0037-85 or BD Pharmingen, 555329) at 37° C. in 5% CO2. On day 4 of culture, PBMCs were collected, washed twice in RPMI-1640 supplemented with 0.1% BSA (RPMI-BSA), and incubated in RPMI-BSA in upright tissue culture flasks for 4 hours at 37° C. in 5% C02. Following this ‘starvation,’ a total of 6×10^4 cells in 30 μL RPMI-BSA was transferred into each well of a 384-well plate pre-spotted with peptide in DMSO. The cells were incubated for 30 minutes prior to the addition of IL-23 at a final concentration of 5 ng/mL. The cells were stimulated withcytokine for 30 minutes at 37° C. in 5% CO2, transferred onto ice for 10 minutes, and lysed. Cell lysates were stored at −80° C. until phosphorylated STAT3 was measured using the phospho-STAT panel kit (Meso Scale Discovery, K15202D).

[3] = target: IL-23R-expressing DB cells (Homo sapiens, UniProt Q5VWK5); assay: DB Cells IL23R pSTAT3 Cell Assay; conditions: pSTAT3 (HTRF) in IL-23R-expressing DB cells, 0.5 nM IL-23, 30 minutes; Table 6 'IL-23 Cell Data'
Source text: IL-23 is believed to play a central role in supporting and maintaining Th17 differentiation in vivo. This process is thought to be mediated primarily through the Signal Transducer and Activator of Transcription 3 (STAT3), with phosphorylation of STAT3 (to yield pSTAT3) leading to upregulation of RORC and pro-inflammatory IL-17. This cell assay examines the levels of pSTAT3 in IL-23R-expressing DB cells when stimulated with IL-23 in the presence of test compounds. Serial dilutions of test peptides and IL-23 (Humanzyme #HZ-1261) at a final concentration of 0.5 nM, were added to each well in a 96 well tissue culture plate (Corning #CLS3894). DB cells (ATCC #CRL-2289), cultured in RPMI-1640 medium (Thermo Scientific #11875093) supplemented with 10% FBS, were added at 5 X 10E5 cells/well and incubated for 30 minutes at 37° C. in a 5% CO2 humidified incubator. Changes in phospho-STAT3 levels in the cell lysates were detected using the Cisbio HTRF pSTAT3 (Tyr705) Cellular Assay Kit (Cisbio #62AT3PEH), according to manufacturer's Two Plate Assay protocol. Where not shown or it is marked as “0”, data was not yet determined.

[4] = read-out: PBMC pSTAT3 IC50; PBMCs from healthy donors, anti-CD3/IL-1β cultured; peptide 30 min, then IL-23 5 ng/mL for 30 min; phosphorylated STAT3 (Meso Scale Discovery)

Molecule	IC50 [3]	IC50 [1]	IC50 [2, 4]	other results
CC(=O)NCCCC[C@@H]1NC(=O)[C@H](Cc2c[nH]c3c(C)cccc23)NC(=O)[C@H]([C@@H](C)O)NC(=O)[C@H](CC(N)=O)NC(=O)[C@@H](NC(=O)[C@@H](CCCCNC(=O)COCCOCCNC(=O)COCCOCCNC(=O)CC[C@H](NC(=O)CCCCCCCCCCCCCCCCC(=O)O)C(=O)O)NC(C)=O)C(C)(C)SSC(C)(C)[C@@H](C(=O)N[C@@H](Cc2ccc(OCCN)cc2)C(=O)N[C@@H](Cc2ccc3ccccc3c2)C(=O)NC2(C(=O)N[C@@H](CCCCNC(C)=O)C(=O)N[C@@H](CC(N)=O)C(=O)N[C@@H](Cc3cccnc3)C(=O)N(C)CC(N)=O)CCOCC2)NC1=O [Example 5, MeCO-k(PEG2PEG2gEC180H)-Pen*-N-T-7MeW-K(Ac)-Pen*-AEF-2Nal-THP-K(Ac)-N-3Pva-Sar-CONH2 (*Pen-Pen form disulfide bond)]	–	–	–	IC50 ([1]; read-out: IC50): 0.021 nM; IC50 ([2]; PBMCs from healthy donors, anti-CD3/IL-1β cultured; peptide 30 min, then IL-23 5 ng/mL for 30 min; phosphorylated STAT3 (Meso Scale Discovery); read-out: PBMC pSTAT3 IC50): 0.16 nM
Ac-[Pen]-N-T-[Trp(7-Me)]-[Lys(Ac)]-[Pen]-[Phe(4-(2-(1PEG2_1PEG2_IsoGlu_Palm)aminoethoxy))]-[2Nal]-[THP]-[Lys(Ac)]-L-[3Pal]-[Sarc]-NH2 [Example 228]	5.11 nM	–	–	–
Ac-[Pen]-N-T-[Trp(7-Me)]-[Lys(Ac)]-[Pen]-[Phe(4-(2-(PEG12_IsoGlu_C18_Diacid)aminoethoxy))]-[2Nal]-[THP]-[Lys(Ac)]-L-[3Pal]-[Sarc]-NH2 [Example 279]	0.277 nM	–	–	–
Ac-[Pen]-N-T-[Trp(7-Me)]-[Lys(Ac)]-[Pen]-[Phe(4-(2-(PEG12_IsoGlu_Palm)aminoethoxy))]-[2Nal]-[THP]-[Lys(Ac)]-L-[3Pal]-[Sarc]-NH2 [Example 231]	2.83 nM	–	–	–
Ac-[Pen]-N-T-[Trp(7-Me)]-[Lys(Ac)]-[Pen]-[Phe(4-OMe)]-[2Nal]-[aMeLys(PEG12_IsoGlu_C18_Diacid)]-A-A-[3Pal]-[Sarc]-NH2 [Example 235]	0.585 nM	–	–	–
Ac-[Pen]-N-T-[Trp(7-Me)]-[Lys(Ac)]-[Pen]-[Phe(4-OMe)]-[2Nal]-[aMeLys(PEG12_IsoGlu_Palm)]-E-L-[3Pal]-[Sarc]-NH2 [Example 217]	1.37 nM	–	–	–
Ac-[Pen]-N-T-[Trp(7-Me)]-[Lys(Ac)]-[Pen]-[Phe(4-OMe)]-[2Nal]-[aMeLys(PEG12_IsoGlu_Palm)]-[Lys(Ac)]-L-[3Pal]-[Sarc]-NH2 [Example 218]	1.01 nM	–	–	–
Ac-[Pen]-N-T-[Trp(7-Me)]-[Lys(PEG12_OMe)]-[Pen]-F-[2Nal]-[aMeLeu]-L-N-[3Pal]-[Sarc]-NH2 [Example 208]	0.056 nM	–	–	–
HOC18gEPEG2PEG2-r-Pen*-N-T-7MeW-K(Ac)-Pen*-AEF-2Nal-THP-K(PEG2PEG2gEC180H)-N-3Pya-Sar-CONH2(*Pen-Pen form disulfide bond) [Example 12]	–	0.29 nM	5 nM	–
HOC18gEPEG2PEG2-r-Pen*-N-T-7MeW-K(Ac)-Pen*-AEF-2Nal-THP—K(Ac)-N-3Pva-Sar-CONH2(*Pen-Pen form disulfide bond) [Example 11]	–	0.044 nM	1.3 nM	–
MeCO-Pen*-N-T-7MeW-K(Ac)-Pen*-AEF-2Nal-THP-K(PEG2PEG2gEC180H)-N-3Pva-Sar-CONH2 (*Pen-Pen form disulfide bond) [Example 4]	–	0.066 nM	1.2 nM	–
MeCO-k(PEG2PEG2SP6gEC180H)-Pen*-N-T-7MeW-K(Ac)-Pen*-AEF-2Nal-THP—K(Ac)-N-3Pva-Sar-CONH2(*Pen-Pen form disulfide bond) [Example 7]	–	0.024 nM	0.42 nM	–
MeCO-k(PEG2PEG2gE(c)C18OH)-Pen*-N-T-7MeW-K(Ac)-Pen*-AEF-2Nal-THP-K(Ac)-N-3Pya-Sar-CONH2 [Example 16]	–	0.014 nM	0.18 nM	–
MeCO-k(PEG2PEG2gEC180H)-Pen*-N-T-7MeW-K(Ac)-Pen*-AEF-2Nal-THP-K(Ac)-N-3Pva-N(4AmBenzyl)Gly-CONH2(*Pen-Pen form disulfide bond [Example 13]	–	0.064 nM	0.27 nM	–
MeCO-k(PEG2PEG2gEDab(mXOH)2)-Pen*-N-T-7MeW-K(Ac)-Pen*-AEF-2Nal-THP—K(Ac)-N-3Pva-Sar-CONH2(*Pen-Pen form disulfide bond) [Example 15]	–	0.054 nM	0.42 nM	–
MeCO-k(PEG2PEG22EC160H)-Pen*-N-T-7MeW-K(Ac)-Pen*-AEF-2Nal-THP-K(gEC16)-N-3Pva-Sar-CONH2(*Pen-Pen form disulfide bond) [Example 10]	–	1.88 nM	4.8 nM	–
MeCO-k(PEG2PEG22EmXOH)-Pen*-N-T-7MeW-K(Ac)-Pen*-AEF-2Nal-THP-K(PEG2PEG2gEmXOH)-N-3Pva-Sar-CONH2(*Pen-Pen form disulfide bond) [Example 9]	–	0.035 nM	0.23 nM	–
MeCO-k(gEC18)-Pen(3)-E(2)-T-7MeW-K(Ac)-Pen(3)-AEF(2)-2Nal-THP-K(Ac)-N-3Pya-Sar-CONH2 [Compound 310]	0.615 nM	–	–	–
MeCO-r-Pen*-N-T-7MeW-K(Ac)-Pen*-AEF(PEG2PEG2gEC180H)-2Nal-THP—K(Ac)-N-3Pva-Sar-CONH2 (*Pen-Pen form disulfide bond) [Example 6]	–	0.055 nM	0.7 nM	–
MeCO-r-Pen*-N-T-7MeW-K(Ac)-Pen*-AEF-2Nal-THP-E-N-3Pva-NMeK(PEG2PEG2gEC180H)-CONH2 (*Pen-Pen form disulfide bond) [Example 3]	–	0.023 nM	5.7 nM	–
MeCO-r-Pen*-N-T-7MeW-K(Ac)-Pen*-AEF-2Nal-THP—K(Ac)-N— 3Pva-N(PEG2PEG2gEC180H)Glv-CONH2(*Pen-Pen form disulfide bond) [Example 14]	–	0.2 nM	0.78 nM	–
